Test: PK and biodistribution in rats after IM injection
Type: in vivo, Sprague-Dawley rats
Details: rat, day 7

FTC level in brain (45 mg/kg): 1.3 ng/g
FTC level in brain (75 mg/kg): 1 ng/g
FTC level in brain (100 mg/kg): 0.7 ng/g
Substance: 2`-deoxy-5-fluoro-3`thiacytidine [FTC]

Reference: publication PMC6689761 (International Journal of Nanomedicine, 2019)
